Test results as given in PubChem BioAssay AID2261 (Sanford-Burnham Center for Chemical Genomics, 2010).
Calls of active or inactive are those of the source.

Test system: NF-kB luciferase reporter cells, PMA/ionomycin-induced
Test: PubChem AID 2261

## Cc1ccc(S(=O)(=O)n2c(N)nc3ccccc32)cc1
  IC50: inactive: > 25 µM
